Values quoted from earlier work as cited in paper PMC5903241 (British Journal of Clinical Pharmacology, 2018).

Conditions: twice-daily (b.i.d.) dosing; sacubitril/valsartan and its analytes; cited from earlier work

For sacubitril/valsartan, the “time to reach steady state” value is given as ≤ 3 days.
